Results: PubChem BioAssay AID624204 (Sanford-Burnham Center for Chemical Genomics, 2012)
This is a selection; strong and weak results do not stand in their true shares. Calls of active or inactive are those of the source.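 Rule for the calls: active = inhibition at least 30% at 10 µM, raw YFP signal under a set limit, fluorescence ratio 0.5 to 1.5; inactive = the rest.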

By UniProt entry, the sequences of proteins in these tests, tags left out. Residues count along the entry.
UniProt Q9P0U3, 419-644 limits assumed: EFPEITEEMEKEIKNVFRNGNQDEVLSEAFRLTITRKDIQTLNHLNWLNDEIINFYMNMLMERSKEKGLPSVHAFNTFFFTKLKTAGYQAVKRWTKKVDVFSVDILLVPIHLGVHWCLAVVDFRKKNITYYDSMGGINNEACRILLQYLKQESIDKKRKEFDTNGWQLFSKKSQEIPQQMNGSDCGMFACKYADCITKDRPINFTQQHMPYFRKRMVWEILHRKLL

Each molecule was assayed against Sentrin-specific protease 1 (Homo sapiens) (UniProt Q9P0U3) (assay: human SENP1 catalytic domain inhibitors, primary screen, biochemical, FRET, uHTS (AID 624204;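 note: 0% = enzyme with DMSO and 100% = no enzyme wells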)). Conditions: recombinant SENP1 catalytic domain, CyPet-SUMO1-YPet FRET cleavage; at 10 µM; active compounds read high.
For `O=C(NCC1(N2CCOCC2)CCCCC1)c1cc2ccccc2o1`, the inhibition was inactive: -7.06%.
`COc1ccc(Cl)cc1C(=O)NCC1(N2CCOCC2)CCCCC1` was tested, and the inhibition was inactive: 2.02%.
`O=c1[nH]c2ccccc2n1C1CCN(C(c2cc3ccccc3o2)c2nnnn2C2CCCCC2)CC1` (stereo not drawn) was tested, and the inhibition was inactive: 0.677%.
For `O=C(OC1CN2CCC1CC2)C1c2ccccc2Oc2ccccc21` (stereo not drawn), the inhibition was inactive: 3.1%.
For `N#CC1(Nc2ccccc2)CCN(Cc2ccccc2)CC1`, the inhibition was inactive: -0.745%.
In the case of `O=C(NCC1(N2CCCCC2)CCCCC1)c1ccc(Cl)s1`, the inhibition is reported as inactive: -5.17%.
`CCCCn1nnnc1C(c1ccc(OC)cc1)N1CCC(n2c(=O)[nH]c3ccccc32)CC1` (stereo not drawn) was tested, and the inhibition was inactive: 2.5%.
In the case of `CCOC(=O)N1CCC(Nc2ccc(OC)cc2)CC1`, the inhibition is reported as inactive: -1%.
For `O=C1CCN(Cc2ccccc2)CC1`, the inhibition was inactive: -28.1%.
With `CC(C)(C)n1nnnc1C(c1ccccc1)N1CCC(n2c(=O)[nH]c3ccccc32)CC1` (stereo not drawn) the inhibition was inactive: 0.205%.
For `CCOc1ccc(C)cc1CN(CCCl)CCCl`, the inhibition was inactive: 2.63%.
In the case of `CCOC(=O)N1CCC(Nc2ccc(F)cc2)CC1`, the inhibition is reported as inactive: 0.32%.
For `COc1ccc(NC2CCN(CCc3ccccc3)CC2)c(OC)c1`, the inhibition was inactive: 1.76%.
`O=C(NCC1(N2CCCCC2)CCCCC1)c1ccc(F)cc1` was tested, and the inhibition was inactive: 1.31%.
With `CCCCOc1ccc(C(=O)NCC2(N3CCOCC3)CCCCC2)cc1` the inhibition was inactive: 0.236%.
With `O=P1(N(CCCl)CCCl)SCCCS1` the inhibition was inactive: 5.22%.
For `CCCCn1nnnc1C(c1cc2ccccc2o1)N1CCC(n2c(=O)[nH]c3ccccc32)CC1` (stereo not drawn), the inhibition was inactive: -0.414%.
In the case of `O=c1[nH]c2ccccc2n1C1CCN(C(c2ccccc2)c2nnnn2C2CCCCC2)CC1` (stereo not drawn), the inhibition is reported as inactive: 3.31%.
For `COc1cc(C(=O)NCC2(N(C)C)CCCCC2)ccc1OC(F)F`, the inhibition was inactive: 5.04%.
For `CCOC(=O)N1CCC(Nc2cccc(C)c2)CC1`, the inhibition was inactive: 1.26%.
With `O=c1[nH]c2ccccc2n1C1CCN(C(c2cccc3ccccc23)c2nnnn2C2CCCC2)CC1` (stereo not drawn) the inhibition was inactive: 1.06%.
`O=C(NCC1(N2CCCCC2)CCCCC1)c1ccc(OC(F)F)cc1` was tested, and the inhibition was inactive: -33.2%.
`CC(C)(C)n1nnnc1C(c1ccccc1OC(F)(F)F)N1CCC(n2c(=O)[nH]c3ccccc32)CC1` (stereo not drawn) was tested, and the inhibition was inactive: 3.14%.
With `N#CC1(Nc2ccccc2)CCN(CCc2ccccc2)CC1` the inhibition was inactive: 0.726%.
With `O=c1[nH]c2ccccc2n1C1CCN(C(c2ccccc2OC(F)(F)F)c2nnnn2C2CCCC2)CC1` (stereo not drawn) the inhibition was inactive: 4.18%.
In the case of `CCN1CCC(Nc2ccc(Cl)cc2)CC1`, the inhibition is reported as inactive: -2.38%.
For `CSc1ccc(C(=O)NCC2(N3CCOCC3)CCCCC2)cc1`, the inhibition was inactive: 2.42%.
`O=C(NCC1(N2CCCCC2)CCCCC1)c1cccc([N+](=O)[O-])c1` was tested, and the inhibition was inactive: 1.48%.
In the case of `O=C(NCC1(N2CCCCC2)CCCCC1)c1cccc(C(F)(F)F)c1`, the inhibition is reported as inactive: 0.454%.
For `O=C(NCC1(N2CCOCC2)CCCCC1)c1cc(=O)[nH]c2ccccc12`, the inhibition was inactive: 0.534%.
`COc1cc(C(=O)NCC2(N3CCCCC3)CCCCC2)ccc1OC(F)F` was tested, and the inhibition was inactive: -17.1%.
For `CCCCn1nnnc1C(c1cccc2ccccc12)N1CCC(n2c(=O)[nH]c3ccccc32)CC1` (stereo not drawn), the inhibition was inactive: 0.586%.
In the case of `COc1ccc(NC2CCN(C(=O)OC(C)(C)C)CC2)cc1`, the inhibition is reported as inactive: 1.86%.
With `CC(C)c1ccc(C(=O)NCC2(N3CCOCC3)CCCCC2)cc1` the inhibition was inactive: 1.25%.
In the case of `CN1CCN(CCOC(=O)C(O)(c2ccccc2)c2ccccc2)CC1`, the inhibition is reported as inactive: 1.2%.
With `CC(C)c1ccc(NC2CCN(C(=O)OC(C)(C)C)CC2)cc1` the inhibition was inactive: 0.519%.
`CCCCn1nnnc1C(c1ccccc1OC(F)(F)F)N1CCC(n2c(=O)[nH]c3ccccc32)CC1` (stereo not drawn) was tested, and the inhibition was inactive: 1.76%.
In the case of `CN(C)c1cccc(C(=O)NCC2(N3CCCCC3)CCCCC2)c1`, the inhibition is reported as inactive: -0.396%.
For `COc1ccc(CN(CCCl)CCCl)cc1Cl`, the inhibition was inactive: 0.109%.
For `CCC(c1nnnn1C(C)(C)C)N1CCC(n2c(=O)[nH]c3ccccc32)CC1` (stereo not drawn), the inhibition was inactive: 1.42%.
For `O=C(NCC1(N2CCOCC2)CCCCC1)c1cc(F)c(F)cc1Cl`, the inhibition was inactive: 0.952%.
For `COc1cc(OC)c(C(=O)NCC2(N(C)C)CCCCC2)cc1OC`, the inhibition was inactive: 3.18%.
In the case of `CCCCn1nnnc1C(c1ccnc2ccccc12)N1CCC(n2c(=O)[nH]c3ccccc32)CC1` (stereo not drawn), the inhibition is reported as inactive: 3.3%.
`O=C(NCC1(N2CCCCC2)CCCCC1)c1cncc(Br)c1` was tested, and the inhibition was inactive: -1.28%.
With `CN1CCC(Nc2cccc(F)c2)CC1` the inhibition was inactive: -1.3%.
`COc1ccc(C(c2nnnn2C2CCCC2)N2CCC(n3c(=O)[nH]c4ccccc43)CC2)cc1` (stereo not drawn) was tested, and the inhibition was inactive: 1.9%.
With `CCCOc1ccc(C(=O)NCC2(N(C)C)CCCCC2)cc1OC` the inhibition was inactive: 1.76%.
For `Cc1ccc(C(=O)NCC2(N(C)C)CCCCC2)o1`, the inhibition was inactive: 1.62%.
